Measured values taken from PubChem BioAssay AID612 (The Scripps Research Institute Molecular Screening Center, 2007).
The list shows a part of the results, in another mix than the full data. The source made the active and inactive calls.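 Rule for the calls: active = inhibition above the mean of all tested compounds plus 3 SD (cut at about 43% in these data); inactive = the rest.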

Chains of the proteins cited; added tags and fusions are not shown.
UniProt P08908, whole entry: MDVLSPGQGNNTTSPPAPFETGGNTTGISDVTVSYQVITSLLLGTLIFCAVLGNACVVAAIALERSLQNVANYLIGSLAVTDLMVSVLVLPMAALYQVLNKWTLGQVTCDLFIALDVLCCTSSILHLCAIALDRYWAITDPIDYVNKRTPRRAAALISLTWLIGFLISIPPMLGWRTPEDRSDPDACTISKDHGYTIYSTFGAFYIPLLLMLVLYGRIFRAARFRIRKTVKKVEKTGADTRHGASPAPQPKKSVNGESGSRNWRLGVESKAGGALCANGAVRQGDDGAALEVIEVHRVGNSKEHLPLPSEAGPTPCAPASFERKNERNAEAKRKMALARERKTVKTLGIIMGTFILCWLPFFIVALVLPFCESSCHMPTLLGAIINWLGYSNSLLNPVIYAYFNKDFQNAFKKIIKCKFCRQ

biological target: 5-hydroxytryptamine receptor 1A (Homo sapiens) (UniProt P08908); assay: blockade of serotonin HTR1A receptor – cell-based, CHO, Ga15 NFAT-bla reporter, primary screen (AID 612); conditions: CHO 5-HT1a Ga15 NFAT-bla reporter, antagonist mode; at 10 µM; active compounds read high;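 note: receptor stimulated by 5-CT agonist at 100 nM near EC80; beta-lactamase reporter measured by ratiometric fluorescence of a cleavable substrate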

Row | Compound | inhibition
1 | N/C(=N\O)c1c(N)no[n+]1[O-] | inactive: -16.8%
2 | CCC(CO)(C(=O)OC1CN2CCC1CC2)c1ccccc1 (configuration not stated) | inactive: -1.9%
3 | CCOc1ncccc1C(=O)NCC1(N2CCOCC2)CCCCC1 | inactive: 7.7%
4 | Fc1ccccc1NC1CCN(Cc2ccccc2)CC1 | inactive: 22.5%
5 | COc1ccc(NC2CCN(CCc3ccccc3)CC2)c(OC)c1 | active: 49.2%
6 | O=C(OC1CN2CCC1CC2)C1c2ccccc2Oc2ccccc21 (configuration not stated) | inactive: 5.4%
7 | N#CC1(Nc2ccccc2)CCN(CCc2ccccc2)CC1 | inactive: 9.1%
